The data set concerns blood capillaries of chorioallantoic membrane of hen's fertilized egg. As to the kind of experiment: HET-CAM test (hen's egg test on chorioallantoic membrane, Invittox protocol 47). Also noted: species or system White Leghorn chicken. The text has this: The HET-CAM (Hen's egg test on chorioallantoic membrane, as per Invittox Protocol 47) method. The hen's egg test on Chorioallantoic Membrane (HET-CAM) is an alternative in-vitro method developed by Luepke et al. to substitute Draize test that was done on rabbits. (Luepke N. Hen's egg chorioallantoic membrane test for irritation potential. Food Chem Toxicol. 1985; 23(2):287-291). It is subsequently modified by […] et al. ([…] Test. The […]. Databank of in-vitro techniques. […] Subsequently, the methodology is successfully adopted to personal care by […] et al. ([…], Bracher M, Courtellemont P, de Silva O. The HET-CAM, a useful in vitro assay for assessing the eye irritation properties of cosmetic formulations and ingredients. Toxicol. […] The egg's shell is opened at the side of the air chamber, and the egg white membrane is removed while avoiding any damage to the fine blood vessels. […] The membrane is carefully moistened with 0.9% NaCl solution and the eggs are replaced in incubator until ready for assaying. […] Onset of haemorrhage (Bleedings), vascular lysis (Blood vessel disintegration), coagulation (protein denaturation intra and extra vascular) is monitored. The onset of the biological endpoints is recorded in number of seconds and the irritancy scores are calculated as per formula prescribed in the protocol document. […]

With “N-Undecylenoyl glycine & N-capryloyl glycine (1:1)”, the “Irritancy Score by HET-CAM” value was 8.5.

Values taken from patent publication US12673017B2, “Ultra-mild, concentrated and self-preserving cleansing compositions for personal care” (GALAXY SURFACTANTS LTD, priority 2022, dated 2026).
